Measured values: ChEMBL document CHEMBL3739296, “Discovery of anilinopyrimidine-based naphthamide derivatives as potent VEGFR-2 inhibitors” (Medchemcomm, 2015)

Sequences of proteins named here, by UniProt entry; tags and fusion partners are left off.
UniProt Q15303, whole entry, looked up: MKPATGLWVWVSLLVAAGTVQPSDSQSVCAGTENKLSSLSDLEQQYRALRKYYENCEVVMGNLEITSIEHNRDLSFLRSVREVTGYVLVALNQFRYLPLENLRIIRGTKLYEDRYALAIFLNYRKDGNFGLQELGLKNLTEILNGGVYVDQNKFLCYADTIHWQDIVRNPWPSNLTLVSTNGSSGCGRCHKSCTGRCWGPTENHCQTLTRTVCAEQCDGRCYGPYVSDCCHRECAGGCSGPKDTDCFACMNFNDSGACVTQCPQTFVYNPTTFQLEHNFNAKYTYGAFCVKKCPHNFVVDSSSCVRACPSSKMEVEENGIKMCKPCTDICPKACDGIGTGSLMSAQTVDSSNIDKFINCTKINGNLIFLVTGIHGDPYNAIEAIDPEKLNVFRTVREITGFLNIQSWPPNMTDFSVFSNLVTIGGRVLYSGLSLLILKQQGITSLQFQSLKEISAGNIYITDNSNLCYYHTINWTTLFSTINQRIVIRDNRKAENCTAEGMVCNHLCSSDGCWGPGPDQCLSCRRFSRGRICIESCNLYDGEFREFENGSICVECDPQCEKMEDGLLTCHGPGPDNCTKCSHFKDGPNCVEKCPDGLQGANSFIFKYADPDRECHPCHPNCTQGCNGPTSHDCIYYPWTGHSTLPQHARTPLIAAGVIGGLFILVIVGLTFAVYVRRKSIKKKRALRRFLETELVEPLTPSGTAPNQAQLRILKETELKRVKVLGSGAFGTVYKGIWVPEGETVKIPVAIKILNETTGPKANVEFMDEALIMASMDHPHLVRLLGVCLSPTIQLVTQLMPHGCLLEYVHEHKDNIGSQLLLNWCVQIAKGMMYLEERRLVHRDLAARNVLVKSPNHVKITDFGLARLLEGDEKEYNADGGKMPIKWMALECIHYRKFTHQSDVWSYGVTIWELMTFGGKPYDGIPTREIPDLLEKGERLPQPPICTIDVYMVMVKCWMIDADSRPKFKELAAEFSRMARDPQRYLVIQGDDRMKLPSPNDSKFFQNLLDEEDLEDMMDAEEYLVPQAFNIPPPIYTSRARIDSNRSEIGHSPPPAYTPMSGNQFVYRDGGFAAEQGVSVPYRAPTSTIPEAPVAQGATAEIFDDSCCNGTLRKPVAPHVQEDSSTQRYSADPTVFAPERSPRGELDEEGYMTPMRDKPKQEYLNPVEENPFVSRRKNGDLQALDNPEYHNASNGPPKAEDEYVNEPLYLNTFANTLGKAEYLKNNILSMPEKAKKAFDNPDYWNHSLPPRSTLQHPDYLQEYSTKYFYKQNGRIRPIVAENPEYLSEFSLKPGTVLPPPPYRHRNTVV
UniProt P21860, whole entry, looked up: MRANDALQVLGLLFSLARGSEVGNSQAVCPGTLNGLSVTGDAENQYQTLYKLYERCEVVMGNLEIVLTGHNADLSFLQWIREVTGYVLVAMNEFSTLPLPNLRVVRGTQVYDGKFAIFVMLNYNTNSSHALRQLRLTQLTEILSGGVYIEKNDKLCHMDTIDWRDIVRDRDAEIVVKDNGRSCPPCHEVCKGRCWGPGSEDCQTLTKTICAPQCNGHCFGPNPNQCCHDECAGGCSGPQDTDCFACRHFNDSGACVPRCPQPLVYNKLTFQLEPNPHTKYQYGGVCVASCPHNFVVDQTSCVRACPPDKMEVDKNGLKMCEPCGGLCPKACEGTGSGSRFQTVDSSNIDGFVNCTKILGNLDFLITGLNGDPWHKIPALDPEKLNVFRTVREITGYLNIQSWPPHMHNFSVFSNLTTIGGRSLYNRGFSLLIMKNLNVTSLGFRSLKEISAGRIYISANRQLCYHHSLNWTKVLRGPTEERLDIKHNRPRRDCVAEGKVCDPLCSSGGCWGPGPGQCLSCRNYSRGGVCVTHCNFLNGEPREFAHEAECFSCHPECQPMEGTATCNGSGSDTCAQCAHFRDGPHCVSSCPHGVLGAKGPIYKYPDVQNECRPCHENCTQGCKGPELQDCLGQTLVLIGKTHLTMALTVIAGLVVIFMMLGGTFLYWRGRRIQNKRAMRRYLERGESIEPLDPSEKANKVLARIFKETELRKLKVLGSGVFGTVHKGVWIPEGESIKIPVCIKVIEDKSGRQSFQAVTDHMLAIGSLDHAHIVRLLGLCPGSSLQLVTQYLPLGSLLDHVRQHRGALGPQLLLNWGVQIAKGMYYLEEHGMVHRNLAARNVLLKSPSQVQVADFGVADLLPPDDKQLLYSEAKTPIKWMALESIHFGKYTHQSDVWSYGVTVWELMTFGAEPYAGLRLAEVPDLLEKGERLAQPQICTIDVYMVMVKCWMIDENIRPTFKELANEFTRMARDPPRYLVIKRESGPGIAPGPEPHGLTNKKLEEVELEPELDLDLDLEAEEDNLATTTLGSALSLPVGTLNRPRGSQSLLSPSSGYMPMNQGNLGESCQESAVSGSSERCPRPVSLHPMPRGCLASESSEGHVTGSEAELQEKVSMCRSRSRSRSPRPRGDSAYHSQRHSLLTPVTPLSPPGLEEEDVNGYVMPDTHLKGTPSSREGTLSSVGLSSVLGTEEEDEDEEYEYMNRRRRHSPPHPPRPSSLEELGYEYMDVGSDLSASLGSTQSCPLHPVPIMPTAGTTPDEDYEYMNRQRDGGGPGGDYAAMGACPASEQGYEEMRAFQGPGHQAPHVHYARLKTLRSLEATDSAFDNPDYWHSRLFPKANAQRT

Columns and labels:
Homo sapiens [1] = species on record: Homo sapiens; experiment: Selectivity ratio of IC50 for c-Src (unknown origin) to IC50 for human recombinant VEGFR2
Homo sapiens [2] = species on record: Homo sapiens; experiment: Selectivity ratio of IC50 for Flt3 (unknown origin) to IC50 for human recombinant VEGFR2
Homo sapiens [3] = species on record: Homo sapiens; experiment: Selectivity ratio of IC50 for human recombinant EPHA2 to IC50 for human recombinant VEGFR2
[4] = target: T1, Epidermal growth factor receptor (Homo sapiens) (UniProt P04626+P00533+Q15303+P21860); experiment: Selectivity ratio of IC50 for wild type human recombinant EGFR to IC50 for human recombinant VEGFR2; format: protein assay
Homo sapiens [5] = species on record: Homo sapiens; experiment: Selectivity ratio of IC50 for human recombinant VEGFR1 to IC50 for human recombinant VEGFR2
Homo sapiens [6] = species on record: Homo sapiens; experiment: Selectivity ratio of IC50 for human recombinant PDGFRalpha to IC50 for human recombinant VEGFR2
Homo sapiens [7] = species on record: Homo sapiens; experiment: Selectivity electivity ratio of IC50 for human recombinant RET to IC50 for human recombinant VEGFR2
Homo sapiens [8] = species on record: Homo sapiens; experiment: Selectivity ratio of IC50 for human recombinant IGF1R to IC50 for human recombinant VEGFR2
Homo sapiens [9] = species on record: Homo sapiens; experiment: Selectivity ratio of IC50 for human recombinant ErbB4 to IC50 for human recombinant VEGFR2
Homo sapiens [10] = species on record: Homo sapiens; experiment: Selectivity ratio of IC50 for human recombinant Abl to IC50 for human recombinant VEGFR2
[11] = target: T1, Epidermal growth factor receptor (Homo sapiens); experiment: Selectivity ratio of IC50 for human recombinant EGFR T790M/L858R mutant to IC50 for human recombinant VEGFR2; format: protein assay
Homo sapiens [12] = species on record: Homo sapiens; experiment: Selectivity ratio of IC50 for human recombinant ErbB2 to IC50 for human recombinant VEGFR2
Homo sapiens [13] = species on record: Homo sapiens; experiment: Selectivity ratio of IC50 for human recombinant PDGFRbeta to IC50 for human recombinant VEGFR2
Homo sapiens [14] = species on record: Homo sapiens; experiment: Selectivity ratio of IC50 for human recombinant FGFR1 to IC50 for human recombinant VEGFR2

CS(=O)(=O)Cc1cccc(Nc2nccc(Oc3ccc4c(C(=O)Nc5ccccc5)cccc4c3)n2)c1
Ratio IC50 (Homo sapiens [1]): > 20000
Ratio IC50 (Homo sapiens [2]): > 20000
Ratio IC50 (Homo sapiens [3]): > 20000
Ratio IC50 [4]: > 20000
Ratio IC50 (Homo sapiens [5]): 18.6
Ratio IC50 (Homo sapiens [6]): > 20000
Ratio IC50 (Homo sapiens [7]): 118
Ratio IC50 (Homo sapiens [8]): > 20000
Ratio IC50 (Homo sapiens [9]): > 20000
Ratio IC50 (Homo sapiens [10]): > 20000
Ratio IC50 [11]: > 20000
Ratio IC50 (Homo sapiens [12]): > 20000
Ratio IC50 (Homo sapiens [13]): > 20000
Ratio IC50 (Homo sapiens [14]): > 20000
